This is an account of results in patent publication US6465479B1, “Pyridomorphinans and use thereof” (Southern Research Institute, priority 1999, dated 2002).

Protein sequences, listed by entry. Tags and fused reporters are not part of them.
UniProt P33535, whole entry: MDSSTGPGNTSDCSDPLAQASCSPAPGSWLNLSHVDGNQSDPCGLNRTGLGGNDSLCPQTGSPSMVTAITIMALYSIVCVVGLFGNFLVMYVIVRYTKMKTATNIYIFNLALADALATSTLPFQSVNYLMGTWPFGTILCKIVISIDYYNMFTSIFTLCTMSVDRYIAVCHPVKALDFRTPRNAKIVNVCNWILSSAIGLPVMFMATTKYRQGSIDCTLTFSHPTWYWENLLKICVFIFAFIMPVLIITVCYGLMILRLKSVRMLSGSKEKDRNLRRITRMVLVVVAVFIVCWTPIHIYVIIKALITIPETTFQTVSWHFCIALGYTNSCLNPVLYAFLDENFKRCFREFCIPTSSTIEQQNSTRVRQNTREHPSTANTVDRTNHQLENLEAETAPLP

The test addresses T1, μ receptors (Rattus norvegicus, UniProt P33535).
T1 construct: [^3H]DAMGO and [^3H]DADLE to rat brain membranes; from tissue; host or cells: rat brain membranes
The experiment in a line: μ opioid receptor binding, displacement of [3H]DAMGO in rat brain membranes. The following applies: displacement of [3H]DAMGO (1.4-3.0 nM), read-out: K1 (nM) ± SEM μ.

SMILES strings stand for the structures.

On to `Oc1ccc2c3c1O[C@H]1c4[nH]c5ccccc5c4C[C@@]4(O)[C@@H](C2)N(CC2CC2)CC[C@]314` [naltrindole, reference compound], for which the Ki amounted to 99 ± 4.6 nM.
